The entries are a selection whose mix differs from that of the whole data set. Records with an inconclusive call do not appear. Where a call stands in place of a potency, no number is given. Active and inactive are the calls of the source. Calls follow the shape of the dose curve; as a rule, active = well fitted inhibition curve with a large enough effect; inconclusive = small, poorly fitted or top-dose-only effect, or another doubt; inactive = no such curve, though single readings can be large or run the other way.

Sequences of proteins named here, by UniProt entry; tags and fusion partners are left off.
UniProt Q92830, whole entry, looked up: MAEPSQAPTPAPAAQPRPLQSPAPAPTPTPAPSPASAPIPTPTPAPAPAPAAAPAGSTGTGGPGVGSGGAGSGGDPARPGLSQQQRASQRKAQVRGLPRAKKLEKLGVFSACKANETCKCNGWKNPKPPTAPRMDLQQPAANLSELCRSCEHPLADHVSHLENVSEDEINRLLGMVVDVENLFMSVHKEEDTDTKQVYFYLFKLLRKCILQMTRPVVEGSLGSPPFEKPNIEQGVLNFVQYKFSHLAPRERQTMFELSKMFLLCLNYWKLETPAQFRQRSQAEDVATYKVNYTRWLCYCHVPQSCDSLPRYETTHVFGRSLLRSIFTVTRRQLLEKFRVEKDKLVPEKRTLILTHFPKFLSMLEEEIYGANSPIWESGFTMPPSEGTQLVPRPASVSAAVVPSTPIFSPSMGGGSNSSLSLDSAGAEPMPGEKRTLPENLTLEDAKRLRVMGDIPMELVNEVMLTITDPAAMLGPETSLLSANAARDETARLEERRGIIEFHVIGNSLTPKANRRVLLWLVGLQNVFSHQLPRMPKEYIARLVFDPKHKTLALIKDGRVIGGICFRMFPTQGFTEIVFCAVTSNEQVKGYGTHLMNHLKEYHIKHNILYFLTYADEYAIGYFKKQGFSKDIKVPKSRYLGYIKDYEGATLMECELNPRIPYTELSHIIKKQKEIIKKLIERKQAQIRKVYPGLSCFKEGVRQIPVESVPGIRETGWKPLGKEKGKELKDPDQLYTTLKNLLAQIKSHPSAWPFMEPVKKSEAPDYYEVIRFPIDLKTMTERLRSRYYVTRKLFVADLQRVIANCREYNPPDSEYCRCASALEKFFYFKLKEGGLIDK

This assay addresses Histone acetyltransferase KAT2A (Homo sapiens) (UniProt Q92830). Description: qHTS Assay for Inhibitors of GCN5L2. The conditions noted are these: GCN5L2 HAT assay, ThioGlo1 CoA-SH fluorescence; series mostly up to 58.9 µM. On the technique in general: In qHTS, concentration-response curves come from the screen itself.
On to `CN1CCCC(OC(=O)C(c2ccccc2)c2ccccc2)C1` (centres undefined), for which the Potency result was “inactive”.

Take `Clc1ccc(Cl)c(NC2=NCC(CBr)S2)c1` (centres undefined): the Potency result was “inactive”. `Nc1cc(N)c2nonc2c1[N+](=O)[O-]`: the Potency entry was “inactive”.

For `O=C(NC(Sc1ccncn1)C(Cl)(Cl)Cl)c1ccccc1` (centres undefined), the Potency result is “inactive”. The entry for `Cc1c2non([O-])c-2c(C)[n+](=O)[n+]1[O-]` is “inactive”; for `Oc1ccccc1CNc1ccccn1` it is “inactive”. Consider `CC(=O)Nc1ccc([As](=O)(O)O)cc1`, for which the Potency entry was “inactive”. As for `O=C(O)c1ccccc1[As](=O)(O)O`, the Potency result is “inactive”. On to `O=P(Nc1nc2ccc(Cl)cc2s1)(c1ccccc1)c1ccccc1`, for which the Potency entry was “inactive”. On to `Cc1ccc(NP(=O)(Oc2ccccc2F)Oc2ccccc2F)nc1`, for which the Potency result is “inactive”. For the compound `Cc1cc(SC(NC(=O)c2ccc(F)cc2)C(Cl)(Cl)Cl)ncn1` (centres undefined), the Potency result was “inactive”. Regarding `CCOP(=O)(Nc1ccccc1)OCC`, the Potency result was “inactive”. The entry for `O=[N+]([O-])c1cc([N+](=O)[O-])c(CCN2CCOCC2)c([N+](=O)[O-])c1` is “inactive”; for `CCN(N=Nc1nonc1N)c1nonc1N` it is “inactive”. The entry for `Nc1cccc2ccc([As](=O)(O)O)cc12` is “inactive”. As for `O=C(Nc1cc([As](=O)(O)O)ccc1O)c1ccccc1`, the Potency entry was “inactive”.

Consider `CC(C)(C)C(=O)NC(Sc1ccncn1)C(Cl)(Cl)Cl` (centres undefined), for which the Potency entry was “inactive”. Consider `O=[N+]([O-])c1ncn(CCn2ncnc2[N+](=O)[O-])n1`, for which the Potency entry was “inactive”. Next, `O=[N+]([O-])c1cccc(NC2=NCC(CBr)S2)c1` (centres undefined): “inactive”; `O=C(O)CNc1ccc([As](=O)(O)O)cc1`: “inactive”. With `COc1ccc(C2=NCC(CBr)S2)cc1` (centres undefined), the Potency result is “inactive”. The entry for `CC(=O)N1C2C3N(C(C)=O)C1C1N(C(C)=O)C(C(N1C(C)=O)N3C(C)=O)N2C(C)=O` is “inactive”. The entry for `O=[N+]([O-])c1cccc2n[nH]nc12` is “inactive”; for `O=[N+]([O-])c1cc([N+](=O)[O-])c(CCNc2ccccc2)c([N+](=O)[O-])c1` it is “inactive”. The entry for `CCc1nc2c(n1)c1c(non1O)c1c2no[n+]1[O-]` is “inactive”.

On to `Cc1ccc(NP(=O)(Oc2ccccc2)Oc2ccccc2)nc1`, for which the Potency result is “inactive”. With `C[N+]1=C2C=CC=CC=C2SC12C([N+](=O)[O-])=CC([N+](=O)[O-])=C[C-]2[N+](=O)[O-]` (centres undefined), the Potency result was “inactive”.

Turning to `Nc1ccc([As](=O)(O)c2ccc(N)cc2)cc1`, the Potency result was “inactive”. Next, `CCN(/C(=N/P(=O)(N1CCOCC1)N1CCOCC1)N1CCOCC1)c1ccc(OC)cc1`: “inactive”. The entry for `CC(C)=N/N=C(\N)N[N+](=O)[O-]` is “inactive”.

As to `CC1CCN(C(=O)Oc2c(Cl)cc(Cl)c3cccnc23)CC1`, the Potency result is “inactive”. The entry for `CC(=O)C1=CCCC2CCC1N2` (centres undefined) is “inactive”.

Take `O=P(Nc1nccs1)(c1ccccc1)c1ccccc1`: the Potency result was “inactive”.

Take `CC(C)C(=O)NC(Sc1ccccc1)C(Cl)(Cl)Cl` (centres undefined): the Potency result is “inactive”. As for `CCC(C)(OOC(C)(C)C)OOC(C)(C)C`, the Potency entry is “inactive”.

As for `c1nnnn1CCn1cnnn1`, the Potency entry was “inactive”. Take `CN(C)C1(CNC(=O)c2ccc(Cl)c(S(N)(=O)=O)c2)CCCCC1`: the Potency entry is “inactive”. Regarding `O=P(Nc1ccccn1)(c1ccc(Br)cc1)c1ccc(Br)cc1`, the Potency result is “inactive”. Consider `C[C@H]1OP(=O)(Oc2ccccc2)[C@H](O)[C@H](O)[C@H]1N=[N+]=[N-]` (some centres undefined), for which the Potency entry was “inactive”. Turning to `O=P(Nc1nc2ccccc2s1)(c1ccccc1)c1ccccc1`, the Potency result was “inactive”.

Turning to `CN(C(=O)Cc1ccccc1)[C@H]1CC[C@@]2(CCCO2)C[C@@H]1N1CCCC1`, the Potency result is “inactive”. The entry for `O=[N+]([O-])c1ncn(CCn2cnc([N+](=O)[O-])n2)n1` is “inactive”. As to `CC(=O)NC(SC(=S)N(C)C)C(Cl)(Cl)Cl` (centres undefined), the Potency entry was “inactive”. Consider `O=[N+]([O-])c1ccc(O)c(/C=N/Nc2ccc([N+](=O)[O-])cc2[N+](=O)[O-])c1`, for which the Potency entry is “inactive”.

For `O=[As](O)(c1ccccc1)c1ccc(O)cc1`, the Potency result is “inactive”. Regarding `C(Cc1nn[nH]n1)Cc1nn[nH]n1`, the Potency result is “inactive”. For `Nc1ccc([As](=O)(O)c2ccc([N+](=O)[O-])cc2)cc1`, the Potency result is “inactive”.

With `O=C(OC1CN2CCC1CC2)c1cccc(Cl)c1` (centres undefined), the Potency result was “inactive”. Next, `O=C(NC1CCS(=O)(=O)C1)NP(=S)(Oc1ccccc1)Oc1ccccc1` (centres undefined): “inactive”; `CCNC(=S)/N=C(\N)N[N+](=O)[O-]`: “inactive”; `CCOC(=O)NC(Sc1ccccc1)C(Cl)(Cl)Cl` (centres undefined): “inactive”.

Consider `Cc1ccc(NP(=O)(Oc2cccc(C)c2)Oc2cccc(C)c2)nc1`, for which the Potency result is “inactive”. In the case of `c1ccc(-c2nn[nH]n2)c(-c2nn[nH]n2)c1`, the Potency entry was “inactive”.

For the compound `Cc1ccc(OP(=O)(Nc2ccccn2)Oc2ccc(C)cc2)cc1`, the Potency result was “inactive”. The entry for `CC(=O)NC(SC(=S)N(CC(C)C)CC(C)C)C(Cl)(Cl)Cl` (centres undefined) is “inactive”. Consider `COC(=O)c1cc2c(s1)N=C(c1ccccc1)N(C)P2(=O)N1CCOCC1` (centres undefined), for which the Potency result is “inactive”. The entry for `CCC(=O)N1C2C3N(C(=O)CC)C1C1N(C(=O)CC)C(C(N1C(=O)CC)N3C(=O)CC)N2C(=O)CC` is “inactive”; for `O=C(OC1CN2CCC1CC2)c1ccccc1` (centres undefined) it is “inactive”; for `CN(C)C(=O)Oc1noc2ccccc12` it is “inactive”. Next, `CC(NC(=O)COC(=O)C(O)(c1ccccc1)c1ccccc1)c1ccccc1` (centres undefined): “inactive”; `CCOc1ccc(C2=NCC(CBr)S2)cc1` (centres undefined): “inactive”; `O=P1(Nc2nc3ccc(Cl)cc3s2)COc2ccccc2O1` (centres undefined): “inactive”. The entry for `CC(C)(C)C(=O)NC(Sc1ccccc1)C(Cl)(Cl)Cl` (centres undefined) is “inactive”; for `CC(=O)c1ccc(N2CC2c2ccncc2)cc1` (centres undefined) it is “inactive”; for `C[C@H]1OP(=O)(Oc2ccccc2)C[C@@H]2O[C@@H]21` (some centres undefined) it is “inactive”.

For `C[C@@H]1C=CCP(=O)(Oc2ccccc2)O1` (some centres undefined), the Potency result was “inactive”. Consider `Cc1ccccc1CN(C)C(=O)COC(=O)C(O)(c1ccccc1)c1ccccc1`, for which the Potency entry was “inactive”. Next, `CC(=O)Nc1ccc(Oc2c([N+](=O)[O-])cc([N+](=O)[O-])cc2[N+](=O)[O-])cc1`: “inactive”; `CC(=O)Nc1ccc([As](=O)(O)O)c(O)c1`: “inactive”.

These data come from PubChem BioAssay AID504327 (National Center for Advancing Translational Sciences (NCATS), 2011).
